Data as given in US20070213291A1, “Therapeutically useful synthetic oligonucleotides” (priority 1999, published 2007).

What was measured:
Format in all cases: cell-based
[1] = tested on: Jurkat human leukemia T cells; assay: Cell cycle stage in Jurkat cells (propidium iodide flow cytometry); details: 24 h, 100 μg/ml
Procedure: (§1) Cell cycle stage was determined using a CYCLETES™ PLUS DNA commercial kit (Becton Dickinson). Briefly, nuclei from cells were obtained by dissolving the cell membrane in a nonionic detergent, eliminating the cell cytoskeleton and nuclear proteins with trypsin, digesting the cellular RNA with RNase and stabilizing the nuclear chromatin with spermine. Propidium iodide was added to the cell nuclei and their fluorescence was analyzed in a flow cytometer equipped with electronic doublet discrimination capability (FACSCalibur, Becton Dickinson, San Jose, Calif.). Accumulation of cells in G0/G1, early S (SE), mid S (SM), late S (SL) or G2/M phases of the cell cycle was analyzed using MODFIT LT software (Verity Software House Inc., Topsham, Mass.).
(§2) Exponentially growing Jurkat human leukemia T cells (Table 28) and MCF-7 human breast cancer cells (5×10^5 cells/ml) (Table 29) were incubated for 24 h with 2, 6, 15, 18, 27 and 45 base sequences containing A, C, G and T. The cells were collected and centrifuged and cell cycle stage was determined.
Jurkat human cell leukemia T cells (1×10^6 cells/ml) were incubated for 24 h with 6 base GT SEQ ID NO:25, conplementary 6 base AC SEQ ID NO:79 and 6 base GT SEQ ID NO:25+6 base AC SEQ ID NO:79. GT SEQ ID NO:25 and AC SEQ ID NO:79 were hybridized by mixing the oligonucleotides (1:1) and heating for 10 minutes at 65° C. As controls, GT SEQ ID NO:25 and AC SEQ ID NO:79 were heated for 10 minutes at 65° C. (Table 30).

[2] = tested on: THP-1 human acute monocytic leukemia cells; assay: Cytokine production by THP-1 cells (ELISA); details: THP-1, 1×10^6 cells, 100 μg/ml, 48 h
Procedure: Unless stated otherwise, 1×10^6 cells were incubated with 100 μg/ml of each of the sequences tested for 48 h at 37° C. in 5% CO2. Production of cytokines IL-6, IL-10, IL-12, IL-1beta and TNF-alpha was determined in pg/ml in 100 μl of culture supernatant using the appropriate commercial ELISA (BioSource, Camarillo Calif.). The IL-12 ELISA measures both IL-12 p70 complex and free p40 subunit. Results are expressed as the “fold” (×) increase in cytokine production by treated cells compared to control cells.
THP-1 human acute monocytic leukemia cells were incubated with 2, 3, 6, 9, 12, 14, 15 and 18 base GT sequences and production of the cyotkine IL-6 was determined (Table 35).
THP-1 human acute monocytic leukemia cells were incubated with 6 base GT, AG, CG, GG, AGT and CGT sequences and production of the cytokines IL-12 and IL-6 was determined (Table 36).
THP-1 human acute monocytic leukemia cells were incubated with 6 base GT sequences, having either an oxygen (phosphodiester) or a sulfur (phosphorothioate) as the nonbridging atom on the phosphate groups and production of the cytokine IL-12 was determined (Table 39).
THP-1 human acute monocytic leukemia cells were incubated with 6 base GT SEQ ID NO:25, having either an oxygen (phosphodiester) or a sulfur (phosphorothioate) as the nonbridging atom on the phosphate groups and production of the cytokine IL-12 was determined (Table 40).

[3] = tested on: OVCAR-3 human ovarian cancer cells; assay: Inhibition of OVCAR-3 cell proliferation (MTT); details: 100 μg/ml, 48 h, 5×10^5 cells/ml
Procedure: (§3) Cells were seeded in 6 (1 ml/well), 24 (0.5 ml/well) or 96 (0.1 ml/well) well flat-bottom microplates and were maintained at 37° C. in a 5% CO2 atmosphere. Unless stated otherwise, 2.5×10^5 cells/ml were incubated with 0 μg/ml (control) and 100 μg/ml (treated) of 2 to 45 base sequences containing A, C, G and T for 48 h.
(§4) Cell proliferation was measured using dimethylthiazol-diphenyl-tetrazolium (MTT) reduction (Mosman et al. J. Immunol. Methods 65:55, 1983). MTT was measured at a wavelength of 570 nm using a multiplate spectrophotometer reader (ELX800, Bio-TEK Instruments Inc., Winooski, Vt.).
OVCAR-3 ovarian cancer cells are a p53 mutated, p21/waf-1/Cip deleted, metastatic human solid tumor model. OVCAR-3 cells (5×10^5 cells/ml) were incubated with 2, 6 and 18 base GT sequences and with a 6 base AGT sequence (Table 11).

[4] = tested on: SK-OV-3 human ovarian cancer cells; assay: Inhibition of SK-OV-3 cell proliferation (MTT); details: 100 μg/ml, 48 h, 5×10^5 cells/ml
Procedure: as §3, §4
SK-OV-3 ovarian cancer cells are a p53 mutated, p21/waf-1/Cip deleted, p15^ink4B deleted, p16^Ink4 deleted, metastatichuman solid tumor model. SK-OV-3 cells (5×10^5 cells/ml) were incubated with 2, 6 and 18 base GT sequences (Table 12).

[5] = tested on: Jurkat human leukemia T cells; assay: Inhibition of Jurkat human leukemia T cell proliferation (MTT reduction); details: 100 μg/ml sequence, 48 h, 2.5×10^5 cells/ml
Procedure: as §3
MTT was measured at a wavelength of 570 nm using a multiplate spectrophotometer reader (ELX800, Bio-TEK Instruments Inc., Winooski, Vt.).
Jurkat human leukemia T cells are an atypical multi-drug resistant human suspension tumor cell model.

[6] = tested on: MCF-7 human breast cancer cells; assay: Cell cycle stage in MCF-7 cells (propidium iodide flow cytometry); details: MCF-7, 5×10^5 cells/ml, 24 h
Procedure: as §1, §2

Substance	% of cells in phase: G0/G1 [1] [%]	% of cells in phase: G2/M [1] [%]	% of cells in phase: SE [1] [%]	% of cells in phase: SL [1] [%]	% of cells in phase: SM [1] [%]	Arrest (cell cycle) [1]	↑ IL-6 (fold increase treated vs control cells) [2] [x]	% INHIBITION of OVCAR-3 human ovarian cancer cell proliferation [3] [%]	% INHIBITION of SK-OV-3 human ovarian cancer cell proliferation [4] [%]	% INHIBITION of Jurkat human leukemia T cell proliferation [5] [%]	% cells in phase: G0/G1 [6] [%]	% cells in phase: G2/M [6] [%]	% cells in phase: SE [6] [%]	% cells in phase: SL [6] [%]	% cells in phase: SM [6] [%]	Arrest (cell cycle) [6]
SEQ ID NO:51 (DNA TG; chemistry not fully specified)	23.1	0.0	52.3	9.8	14.8	End SE	2.9	23	18	50	17.2	17.9	36.4	14.1	13.4	End SE
SEQ ID NO:50 (DNA GT; chemistry not fully specified)	–	–	–	–	–	–	–	–	–	38	–	–	–	–	–	–
